We go through 1 molecule from ChEMBL document CHEMBL1153405, “Complementary three-dimensional quantitative structure-activity relationship modeling of binding affinity and functional potency: a study on alpha4beta2 nicotinic ligands” (J Med Chem, 2009).

Amino acid sequences for entries named in this document (tags omitted). A change or cut given only in a name is not applied to a line headed by its entry.
UniProt P17787: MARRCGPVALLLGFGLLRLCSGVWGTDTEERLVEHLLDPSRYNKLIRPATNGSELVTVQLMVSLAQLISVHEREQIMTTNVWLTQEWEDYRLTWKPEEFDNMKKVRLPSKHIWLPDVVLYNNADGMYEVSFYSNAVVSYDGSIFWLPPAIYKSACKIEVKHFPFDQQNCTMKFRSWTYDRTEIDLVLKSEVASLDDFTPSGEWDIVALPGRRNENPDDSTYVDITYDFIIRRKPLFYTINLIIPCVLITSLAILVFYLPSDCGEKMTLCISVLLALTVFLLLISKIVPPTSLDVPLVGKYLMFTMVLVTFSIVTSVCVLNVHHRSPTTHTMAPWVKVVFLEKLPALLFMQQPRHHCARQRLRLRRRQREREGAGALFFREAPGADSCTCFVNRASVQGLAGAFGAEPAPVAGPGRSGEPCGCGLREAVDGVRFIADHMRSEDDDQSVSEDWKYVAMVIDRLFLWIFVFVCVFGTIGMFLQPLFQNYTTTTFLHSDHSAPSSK
UniProt P43681: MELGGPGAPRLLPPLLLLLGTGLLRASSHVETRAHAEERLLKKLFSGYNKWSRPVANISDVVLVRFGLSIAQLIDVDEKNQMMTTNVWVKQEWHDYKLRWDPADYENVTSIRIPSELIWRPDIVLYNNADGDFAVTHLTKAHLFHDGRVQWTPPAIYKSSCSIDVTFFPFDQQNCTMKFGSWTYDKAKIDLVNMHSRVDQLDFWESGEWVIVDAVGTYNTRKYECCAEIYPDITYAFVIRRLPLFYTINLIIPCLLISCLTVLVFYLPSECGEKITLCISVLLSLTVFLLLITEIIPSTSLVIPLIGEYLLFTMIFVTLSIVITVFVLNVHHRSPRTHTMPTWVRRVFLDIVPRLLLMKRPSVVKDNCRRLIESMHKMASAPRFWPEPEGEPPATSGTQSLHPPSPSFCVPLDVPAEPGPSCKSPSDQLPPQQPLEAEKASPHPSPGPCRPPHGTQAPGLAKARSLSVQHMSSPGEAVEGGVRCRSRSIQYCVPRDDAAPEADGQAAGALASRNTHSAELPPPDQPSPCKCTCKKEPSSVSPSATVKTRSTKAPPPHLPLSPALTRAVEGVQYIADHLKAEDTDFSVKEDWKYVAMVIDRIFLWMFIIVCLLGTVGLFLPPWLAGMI

This experiment concerns the target Neuronal acetylcholine receptor; alpha4/beta2 (Homo sapiens, UniProt P17787+P43681). The experiment is described as follows: Intrinsic activity at human alpha4beta2 nAChR expressed in HEK293 cells assessed as intracellular calcium level by FLIPR assay relative to (-)nicotine. In kind it is cell-based. In outline:
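HEK-293 cells stably expressing human α4β2 (subunits cloned from IMR32) were grown in DMEM with 10% FBS at 37 °C and 5% CO2. They were plated on poly-D-lysine for 24 h, then loaded with 2 µM fluo-4/AM for 1.5 h at room temperature. Cells were washed into NMDG Ringer (10 mM CaCl2, pH 7.4) and read by FLIPR at 100 pM–100 µM. Background-subtracted responses were normalized to 100 µM (-)-nicotine, giving pEC50 and maximal efficacy; n = 4-8.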
A general note: Calcium flux is commonly read through the fluorescence of an indicator in the cells.

Regarding `c1cncc(OC[C@@H]2CCN2)c1`, the Efficacy came to 183%.
